Molecular target: T1, Bak (residues 23-186) (UniProt Q16611 23-186)
T1 construct: Bak, residues 23-186; Cloned in pET-28a(+) between NdeI and XhoI; buffer-exchanged to HBS-EP
T1 sequence (looked up): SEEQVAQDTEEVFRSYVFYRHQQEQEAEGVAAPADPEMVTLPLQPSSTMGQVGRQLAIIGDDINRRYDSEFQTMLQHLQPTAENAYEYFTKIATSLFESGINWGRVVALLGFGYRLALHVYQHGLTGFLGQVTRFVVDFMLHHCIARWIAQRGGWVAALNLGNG
Assay: SPR; Bfk BH3 peptide amine-coupled to a CM5 chip (10 mM sodium acetate pH 5.0); Bcl-2, Bcl-XL (3.13-200 nM) and Bak (1.25-40.0 uM) injected in HBS-EP at 30 uL/min for 90 s; Biacore T200; KD by steady-state affinity analysis
Settings: both partners purified

Kd: 70 µM
B1: synthetic BH3 peptide derived from Bfk (residues 47-67) (peptide)
peptide: SFDVAIIAGRLRMLGDQFNGE
notes: BH3 peptide of human Bfk (BCL2L15), residues 47-67; also called Bfk BH3 peptide; Bfk BH3; source: synthetic peptide
